Source: patent publication US5234944A (priority 1986, dated 1993)

By UniProt entry, the sequences of proteins in these tests, tags left out. Where a name states a change or a piece, a line headed by the entry shows the natural chain unless it says otherwise.
UniProt P41144: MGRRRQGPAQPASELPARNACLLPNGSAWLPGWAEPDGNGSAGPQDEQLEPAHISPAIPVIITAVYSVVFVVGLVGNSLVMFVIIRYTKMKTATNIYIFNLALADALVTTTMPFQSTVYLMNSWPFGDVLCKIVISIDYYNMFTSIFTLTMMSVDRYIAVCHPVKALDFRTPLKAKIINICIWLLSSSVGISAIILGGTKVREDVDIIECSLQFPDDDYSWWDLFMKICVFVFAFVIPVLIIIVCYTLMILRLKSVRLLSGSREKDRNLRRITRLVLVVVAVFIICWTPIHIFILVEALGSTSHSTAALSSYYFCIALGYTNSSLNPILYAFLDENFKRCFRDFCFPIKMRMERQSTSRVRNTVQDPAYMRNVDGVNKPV

Columns and labels:
opiated receptor K = opiated receptor K (Cavia porcellus, UniProt P41144); assay: Liaison with the opiated receptor K in vitro (displacement of 3H ethylketocyclazocine); assay type: binding; conditions: read-out: 50% inhibiting concentration (IC50); guinea-pig cerebella membranes; 3H ethylketocyclazocine 1 nM; Tris pH 7.7; 25° C., 40 minutes
[1] = Hypotensive activity on the anaesthetized rat; assay type: in vivo, rat (Sprague Dawley); conditions: injected into jugular vein
[2] = Measurement of the diuretic activity; assay type: in vivo, rat (Sprague Dawley); conditions: dose 10 mg/kg; oral; t1h-t5h
Method: 4) Measurement of the diuretic activity
Male rats of Sprague Dawley strain weighing 180 to 200 g were not fed for 17 hours before the test, but received water ad libitum. Groups of 8 animals were set up for each dose tested and the rats received the product under test or its vehicle orally. The urinary volume was measured every hour for the 5 hours following the administration of the product. At the end of this period, the urines were collected and the activity of the product was expressed as a percentage of variation calculated on the urinary volume corresponding to the period t1h -t5h.

[3] = Anti-arrythmic activity in the rat (aconitine); assay type: in vivo; conditions: intravenous, aconitine 5 minutes after
[4] = Analgesic activity (copper plate at 56° C., licking of front paws); conditions: female mice; oral; 56° C. plate; 30 minutes after the treatment

| Structure (SMILES) | IC50 (opiated receptor K) | variation of arterial pressure, 5 min. after administration ([1]; dose 10 mg/kg) | variation of arterial pressure, 30 min. after administration ([1]; dose 10 mg/kg) | percentage of variation of the urinary volume [2] | percentage of extension of time of appearance of disturbances of the cardiac rhythm ([3]; dose 5 mg/kg) | percentage of extension of time of appearance of disturbances of the cardiac rhythm ([3]; dose 10 mg/kg) | variation of arterial pressure, 5 min. after administration ([1]; dose 1 mg/kg) | variation of arterial pressure, 30 min. after administration ([1]; dose 1 mg/kg) | AD100, dose which increased the reaction time by 100% [4] |
| --- | --- | --- | --- | --- | --- | --- | --- | --- | --- |
| CN(C(=O)Cc1cccc([N+](=O)[O-])c1)[C@@H]1c2ccccc2C[C@H]1N1CCCC1 (relative stereo) | 2.7 nM | -32% | -31% | +74% | +32% | +34.6% | – | – | – |
| CN(C(=O)Cc1ccc(Cl)c(Cl)c1)[C@@H]1c2ccccc2C[C@H]1N1CCCC1 (relative stereo) | 1.8 nM | -13% | -19% | – | +20.6% | +31.4% | -19% | -23% | 50 mg/kg |
